Results from PubChem BioAssay AID938 (National Center for Advancing Translational Sciences (NCATS), 2007).
Hit rate of the full screen: of about 73,000 compounds, about 1,800 (2.5%) were called active. These results got no clear call from the source, so the numbers are uncertain. Calls follow the shape of the dose curve; as a rule, active = well fitted activation curve with a large enough effect; inconclusive = small, poorly fitted or top-dose-only effect; inactive = no such curve, though single readings can be large or run the other way.

Test: qHTS Assay for Agonists of the Thyroid Stimulating Hormone Receptor: Activators of Intracellular cAMP Concentrations in Parental HEK 293; also: nearly all actives have a fitted effect of over 55% in size
Conditions: parental HEK293 CNG cAMP sensor, membrane potential fluorescence
Potency is read from the fitted curve at half-maximal effect.

Compound | Potency
CCOP1(=S)c2c(C)nn(CCC#N)c2N=C(c2ccccc2F)N1C (stereo unspecified) | inconclusive: 15.8 µM
